In ChEMBL document CHEMBL1129799, “Homology modeling of metabotropic glutamate receptors. (mGluRs) structural motifs affecting binding modes and pharmacological profile of mGluR1 agonists and competitive antagonists” (J Med Chem, 1996) one finds EC50 data, which are given here for one compound.

Amino acid sequences for entries named in this document (tags omitted). A change or cut given only in a name is not applied to a line headed by its entry.
UniProt Q13255: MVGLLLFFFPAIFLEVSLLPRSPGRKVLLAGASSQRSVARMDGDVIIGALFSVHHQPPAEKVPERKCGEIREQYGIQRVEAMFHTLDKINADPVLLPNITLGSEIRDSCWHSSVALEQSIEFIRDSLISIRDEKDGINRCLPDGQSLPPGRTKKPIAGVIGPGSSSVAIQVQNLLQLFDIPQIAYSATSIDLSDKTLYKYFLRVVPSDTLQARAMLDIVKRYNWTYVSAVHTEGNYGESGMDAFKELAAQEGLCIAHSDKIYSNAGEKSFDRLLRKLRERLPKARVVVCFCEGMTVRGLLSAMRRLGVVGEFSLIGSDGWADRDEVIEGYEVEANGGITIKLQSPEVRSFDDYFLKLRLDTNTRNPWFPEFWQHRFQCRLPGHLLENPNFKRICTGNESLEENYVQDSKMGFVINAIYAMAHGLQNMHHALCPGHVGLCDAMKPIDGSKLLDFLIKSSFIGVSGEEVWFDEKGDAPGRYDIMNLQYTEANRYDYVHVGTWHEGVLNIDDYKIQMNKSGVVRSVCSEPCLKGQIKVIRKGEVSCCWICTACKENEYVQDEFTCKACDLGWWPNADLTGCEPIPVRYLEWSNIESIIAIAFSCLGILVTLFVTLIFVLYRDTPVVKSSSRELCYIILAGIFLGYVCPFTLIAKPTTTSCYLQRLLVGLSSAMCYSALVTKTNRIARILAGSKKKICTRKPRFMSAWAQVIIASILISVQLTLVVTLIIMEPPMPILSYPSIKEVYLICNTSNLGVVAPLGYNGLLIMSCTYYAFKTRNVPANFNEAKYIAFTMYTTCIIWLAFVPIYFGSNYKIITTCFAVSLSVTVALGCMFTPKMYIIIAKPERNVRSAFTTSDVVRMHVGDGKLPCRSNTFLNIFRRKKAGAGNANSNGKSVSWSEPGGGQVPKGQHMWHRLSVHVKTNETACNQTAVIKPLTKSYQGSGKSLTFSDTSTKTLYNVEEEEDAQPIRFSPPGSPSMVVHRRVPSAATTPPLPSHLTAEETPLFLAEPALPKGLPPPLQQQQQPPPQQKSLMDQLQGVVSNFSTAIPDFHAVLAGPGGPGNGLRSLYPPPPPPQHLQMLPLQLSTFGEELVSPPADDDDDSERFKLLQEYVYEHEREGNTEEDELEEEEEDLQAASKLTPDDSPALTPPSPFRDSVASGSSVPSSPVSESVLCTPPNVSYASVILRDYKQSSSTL

By EC50 is commonly meant the concentration needed to bring the measured effect to its halfway point.

SMILES strings stand for the structures.

The experiment addresses Metabotropic glutamate receptor 1 (Homo sapiens, UniProt Q13255). The experiment can be described thus: Effective concentration for half maximal stimulation of PI hydrolysis (mGluR1a).

Compound `N[C@@H](Cn1oc(=O)[nH]c1=O)C(=O)O` [QUISQUALATE] displayed an EC50 of 200 nM.
